Values quoted from earlier work as cited in patent US12325866B2, “Systems and methods for growing cells in vitro” (Yissum Research Development Company of the Hebrew …, priority 2016, dated 2025).

Test system: cell growth
Details: cited from earlier work

Which “Concentration at which toxic and limiting cell growth” value does the source give for `N` [Ammonia] here?
The value was 5000 µM.
